Literature values as cited in publication PMC7689490, “Designed CXCR4 mimic acts as a soluble chemokine receptor that blocks atherogenic inflammation by agonist-specific targeting” (Nature Communications, 2020).

Biological target: human or mouse MIF
Conditions: read-out: KD for MIF; ref [63]

Kd: 1 to 3 nM
B1: Imalumab: anti-MIF antibody (antibody, chains of the INN, looked up, V domains shown)
VH: EVQLLESGGGLVQPGGSLRLSCAASGFTFSIYSMNWVRQAPGKGLEWVSSIGSSGGTTYYADSVKGRFTISRDNSKNTLYLQMNSLRAEDTAVYYCAGSQWLYGMDVWGQGTTVTVSS
VL: DIQMTQSPSSLSASVGDRVTITCRSSQRIMTYLNWYQQKPGKAPKLLIFVASHSQSGVPSRFRGSGSETDFTLTISGLQPEDSATYYCQQSFWTPLTFGGGTKVEIK
